Assay [1] addresses Muscarinic acetylcholine receptor M4 (Homo sapiens, UniProt P08173).
Assay [2] concerns the target Muscarinic acetylcholine receptor M1 (Homo sapiens, UniProt P11229).
In assay [3] the target is Muscarinic acetylcholine receptor M3 (Homo sapiens, UniProt P20309).

By UniProt entry, the sequences of proteins in these tests, tags left out. Where a name states a change or a piece, a line headed by the entry shows the natural chain unless it says otherwise.
UniProt P08173, whole entry: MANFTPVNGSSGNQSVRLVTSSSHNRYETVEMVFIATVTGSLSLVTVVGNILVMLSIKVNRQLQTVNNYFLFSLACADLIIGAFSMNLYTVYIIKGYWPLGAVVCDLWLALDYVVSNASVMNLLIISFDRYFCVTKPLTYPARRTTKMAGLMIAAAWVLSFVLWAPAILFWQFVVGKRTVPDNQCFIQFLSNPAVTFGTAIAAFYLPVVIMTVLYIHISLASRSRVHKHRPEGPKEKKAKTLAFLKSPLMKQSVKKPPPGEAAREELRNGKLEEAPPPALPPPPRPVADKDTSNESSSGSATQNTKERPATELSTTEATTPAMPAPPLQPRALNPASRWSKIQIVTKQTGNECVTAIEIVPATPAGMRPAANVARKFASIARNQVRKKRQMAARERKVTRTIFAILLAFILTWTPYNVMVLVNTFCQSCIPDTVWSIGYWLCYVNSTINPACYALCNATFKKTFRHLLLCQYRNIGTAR
UniProt P11229: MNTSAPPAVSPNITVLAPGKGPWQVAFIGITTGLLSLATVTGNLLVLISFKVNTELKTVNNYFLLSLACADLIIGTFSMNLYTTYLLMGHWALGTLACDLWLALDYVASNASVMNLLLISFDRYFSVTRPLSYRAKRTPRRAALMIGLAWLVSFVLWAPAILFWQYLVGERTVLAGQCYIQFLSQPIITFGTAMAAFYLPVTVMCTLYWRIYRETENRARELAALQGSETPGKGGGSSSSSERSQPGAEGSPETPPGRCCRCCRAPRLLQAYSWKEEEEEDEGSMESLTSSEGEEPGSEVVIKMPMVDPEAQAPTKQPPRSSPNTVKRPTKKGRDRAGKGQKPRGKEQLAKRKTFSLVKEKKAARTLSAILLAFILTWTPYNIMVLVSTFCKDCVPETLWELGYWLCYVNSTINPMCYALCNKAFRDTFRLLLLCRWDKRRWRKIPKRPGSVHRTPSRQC
UniProt P20309, whole entry: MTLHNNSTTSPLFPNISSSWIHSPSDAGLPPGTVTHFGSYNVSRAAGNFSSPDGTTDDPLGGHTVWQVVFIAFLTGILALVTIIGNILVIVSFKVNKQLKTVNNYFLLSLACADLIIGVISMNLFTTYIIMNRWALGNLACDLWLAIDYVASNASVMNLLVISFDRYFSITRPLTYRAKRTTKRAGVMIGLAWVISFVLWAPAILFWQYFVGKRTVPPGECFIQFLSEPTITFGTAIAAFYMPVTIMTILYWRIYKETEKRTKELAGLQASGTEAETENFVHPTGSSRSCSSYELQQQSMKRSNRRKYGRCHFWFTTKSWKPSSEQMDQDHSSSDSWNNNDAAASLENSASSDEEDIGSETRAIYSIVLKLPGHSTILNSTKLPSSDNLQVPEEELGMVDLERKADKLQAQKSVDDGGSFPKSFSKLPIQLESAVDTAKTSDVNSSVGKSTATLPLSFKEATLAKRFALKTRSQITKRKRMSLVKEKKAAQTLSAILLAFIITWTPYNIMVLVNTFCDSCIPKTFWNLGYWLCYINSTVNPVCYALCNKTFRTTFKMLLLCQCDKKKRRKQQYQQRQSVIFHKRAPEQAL

In general, Ki refers to the equilibrium dissociation constant of an inhibitor or competing ligand from its target. Low values mean a stronger hold on the target, high ones a looser hold on the target.

The molecule `CN1C2CC(OC(=O)C(CO)c3ccccc3)CC1C1OC12` (stereo not drawn) [3-hydroxy-2-phenyl-propionic acid 9-methyl-3-oxa-9-aza-tricyclo[3.3.1.0*2,4*]non-7-yl ester] had a Ki in assay [1] of 0.8 nM. For `CN1CCN(C2=c3ccccc3=Nc3ccc(Cl)cc3N2)CC1` [6-chloro-10-(4-methylpiperazin-1-yl)-2,9-diazatricyclo[9.4.0.0^{3,8}]pentadeca-1,3(8),4,6,10,12,14-heptaene], the Ki stood at 3.1 nM in assay [2] and 20 nM in assay [3].
